Measured values as given in patent US11360096B2, “Complex BRET technique for measuring biological interactions” (DUKE UNIVERSITY, priority 2019, dated 2022).

What was measured:
[1] = biological target: T1, AT1R (Homo sapiens, UniProt P30556); test: BRET assay of β-arrestin-2-YFP recruitment to AT1R-RlucII; assay type: cell-based
T1 construct: 3xHA (N); expressed in transfected cells; host or cells: HEK 293T
Source text: For panel A, n=4 per condition, for panels B and C, n=4-5 per condition, for panels E and F, n=4 per condition. Graphs show mean±s.e.m.

[2] = biological target: T1, AT1R; test: Split luciferase Gαi-LgBiT:β-arrestin-smBiT association after treatment of AT1R; assay type: cell-based
Method: HEK293T cells seeded in 6-well plates were co-transfected with 500 ng of smBiT tagged β-arrestin-2, and either 250 ng of LgBiT tagged receptor or 2000 ng of untagged receptor and varying concentrations of LgBiT Gα protein expression vector (most experiments were conducted between 50-200 ng of Gα plasmid) or 2000 ng of mKO tagged β-arrestin-2 and 500 ng of smBiT tagged V2R using a calcium phosphate protocol. Twenty-four hours post-transfection, cells were plated onto clear bottom, white-walled 96-well plates at 50,000-100,000 cells/well in “BRET media”—clear minimum essential medium (GIBCO) supplemented with 2% FBS, 10 mM HEPES, 1×GLUTAMAX™, and 1× Anti-Anti (GIBCO). […] For luminescence split luciferase studies, plates were read with a BioTek SYNERGY™ Neo2 plate reader set at 37° C. with a 485 nm emission filter. […] For split luciferase luminescence experiments, plates were read both before and after ligand treatment to calculate Δnet change in luminescence and subsequently normalized to vehicle treatment. For complex BRET experiments, plates were read on a Berthold Mithras LB940 using pre-warmed media and instrument at 37° C. using a standard Rluc emissions filter (480 nm) with a custom mKO 542 nm long-pass emission filter (Chroma Technology Co., Bellows Falls, Vt.). The BRET ratio was calculated by dividing the mKO signal by the luciferase signal.

- β-arrestin recruitment to AT1R [1]: recruits β-arrestin
- Gαi:β-arrestin complex formation at AT1R [2]: induced Gαi:β-arrestin complex formation
Substance: Angiotensin II [AngII]
